Assay outcomes from PubChem BioAssay.
This excerpt belongs to a sample that is enriched for hits.
HCMV UL50-53 inh – cytomegalovirus nuclear egress complex inhibition. HTRF UL50-UL53 interaction, normalized percent inhibition. inhibition, % (no concentration beside the values). 190,000 compounds, 0.15% hits; in the data active = inhibition above about 27%, passing the limit was not always enough
GIV-Gai inh – inhibitors of GIV GBA-motif binding to rat Galpha-i3; P08753; Galpha-i3/FITC-GIV peptide fluorescence polarization, 90 min; hits give low values; scaled: aluminum fluoride 0%, vehicle 100%; percent of control (FP), % (test concentration not listed); AID 1224905; hit rate 0.42% among 210,000;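 active = replicate mean at 85% of control or lower, very high polarization wells dropped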;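 note: wells of about 15 µL received 100 nL stock; the first replicate is given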
GIV-Gai FP conf – GIV-Galpha-i3 inhibition, FP confirmation | shares compounds with GIV-Gai inh | FITC-GIV peptide binding to Galphai3, fluorescence polarization; hits give low values | fluorescence polarization, mP at 100 µM | 580 compounds, 38% hits | AID 1259350;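 active = inhibition score of 15 or more, meaning 100 minus mean polarization as percent of control over three replicates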;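 note: lower mP means peptide displaced from Galphai3 so more inhibition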
GIV Gai AS conf – GIV-Galpha-i3 inhibition, AlphaScreen confirmation; shares compounds with GIV-Gai inh; AlphaScreen Galphai3-GIV binding, purified proteins, 90 min; hits give low values; AlphaScreen counts at 100 µM; 580 compounds, 39% hits; AID 1259351;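 active = inhibition score at or above a set limit, where the score is 100 minus the three-replicate mean percent of control signal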
The depositor's hits bear a star; nt = no result given.

1. CC(C)Nc1ccc(-c2nc(-c3ccco3)no2)cc1[N+](=O)[O-]
2. CCC(C)NS(=O)(=O)c1cc(-c2ccno2)oc1C (configuration not stated)
3. O=c1cc(C(F)(F)F)nc(SCc2ccccn2)[nH]1
4. C=CCC(NCc1ccco1)c1ccc(N(C)C)cc1 (configuration not stated)
5. COc1ccc2c(C)[nH]c(=O)cc2c1
6. CCCc1[nH]c(=O)cc2cc(OC)c(OC)cc12

assay / entry	1	2	3	4	5	6
HCMV UL50-53 inh	-4	-32	-20	-16	nt	42
GIV-Gai inh	90	112	103	nt	104	77*
GIV-Gai FP conf	81	nt	nt	nt	nt	58
GIV Gai AS conf	30875	nt	nt	nt	nt	23102*

7. Cc1[nH]n(-c2ccccc2)c(=O)c1C(c1ccc(C#N)cc1)c1c(C)[nH]n(-c2ccccc2)c1=O
8. CCOc1ccc(C(c2c(C)[nH]n(-c3ccccc3)c2=O)c2c(C)[nH]n(-c3ccccc3)c2=O)cc1
9. Cc1[nH]n(-c2ccccc2)c(=O)c1C(c1cc(Br)ccc1O)c1c(C)[nH]n(-c2ccccc2)c1=O
10. CCCCCCOc1ccc(C(c2c(C)[nH]n(-c3ccccc3)c2=O)c2c(C)[nH]n(-c3ccccc3)c2=O)cc1
11. Cc1[nH]n(-c2ccccc2)c(=O)c1C(c1cc([N+](=O)[O-])ccc1O)c1c(C)[nH]n(-c2ccccc2)c1=O
12. Cc1ccc(COc2ccc(C(c3c(C)[nH]n(-c4ccccc4)c3=O)c3c(C)[nH]n(-c4ccccc4)c3=O)cc2)cc1

assay / entry	7	8	9	10	11	12
HCMV UL50-53 inh	nt	nt	nt	nt	nt	nt
GIV-Gai inh	71*	101	106	62*	76*	115
GIV-Gai FP conf	66	nt	nt	67	64	nt
GIV Gai AS conf	33414	nt	nt	11116*	23681*	nt

13. Cc1[nH]c(C)c(S(=O)(=O)N2CCC(C(=O)NC3CC3)CC2)c1C(=O)N1CCCCC1
14. CCOC(=O)C1CCN(C(=O)COc2ccc(S(=O)(=O)N3CCCCC3)cc2Cl)CC1
15. Cc1cc2[nH]c(=O)[nH]c2cc1S(=O)(=O)NC1CCCC1
16. Nc1ccc2c(c1)OC1(O)c3ccccc3C(=O)C21O (configuration not stated)
17. O=C1CCCC2=C1C1(O)C(=O)c3ccccc3C1(O)O2 (configuration not stated)
18. Cc1ccc(NC(=O)N(CCc2ccncc2)C(C)C)cc1C

assay / entry	13	14	15	16	17	18
HCMV UL50-53 inh	-25	6	nt	-20	78*	12
GIV-Gai inh	104	101	109	nt	59*	110
GIV-Gai FP conf	nt	nt	nt	nt	54*	nt
GIV Gai AS conf	nt	nt	nt	nt	53411	nt

19. COc1ccc(Nc2nc3ccccc3nc2NS(=O)(=O)c2ccc(C)cc2)c(OC)c1
20. COc1ccc2nc(NS(=O)(=O)c3ccc(C)cc3)c(Nc3cc(Cl)ccc3OC)nc2c1
21. Cc1nc(N2CCN(C)CC2)c2c(C)c(C(=O)Nc3cccc(Cl)c3)sc2n1
22. COc1ccc(Cl)cc1NC(=O)c1sc2nc(C)nc(N3CCN(C)CC3)c2c1C
23. CCCc1oc2c(cc(NS(=O)(=O)c3ccc(Cl)c([N+](=O)[O-])c3)c3ccccc32)c1C(=O)OCC
24. COc1cc(C2Nc3ccc4ccccc4c3C3=C2C(=O)CC(C)(C)C3)ccc1OC(C)=O (configuration not stated)

assay / entry	19	20	21	22	23	24
HCMV UL50-53 inh	-21	-10	nt	nt	nt	nt
GIV-Gai inh	39*	230	94	97	104	108
GIV-Gai FP conf	81	nt	65	nt	nt	nt
GIV Gai AS conf	33344	nt	54788	nt	nt	nt

25. COc1ccc(NC(=O)c2sc3nc4c(c(-c5ccco5)c3c2N)CCCC4)cc1
26. COc1ccc(NC(=O)c2sc3nc4c(c(-c5ccco5)c3c2N)CCCCC4)cc1
27. Cc1c2c(n3c(nc4ccccc43)c1C#N)N(CCN1CCOCC1)CC2
28. Cc1c2c(n3c(nc4ccccc43)c1C#N)N(C1CCCC1)CC2
29. Cc1cc2oc(=O)cc(CN(C)c3ccccc3)c2cc1C
30. CC1(C)CC(=O)c2c(oc3c2cc(NS(=O)(=O)c2ccccc2)c2ccccc23)C1

assay / entry	25	26	27	28	29	30
HCMV UL50-53 inh	nt	nt	-27	-16	0	nt
GIV-Gai inh	84*	106	97	101	nt	106
GIV-Gai FP conf	65	nt	76	nt	nt	nt
GIV Gai AS conf	55254	nt	30989	nt	nt	nt

31. COc1cccc(NC(=O)c2ccc3nsnc3c2)c1
32. Fc1ccc(NC(=S)N2CCCCC2)cc1
33. S=C(Nc1ccc2nsnc2c1)N1CCCC1
34. CCN(CC)C(=S)Nc1ccc2nsnc2c1
35. COc1ccc2[nH]cc(CCNC(=O)NC34CC5CC(CC(C5)C3)C4)c2c1
36. CC(=O)Nc1ccc(NC(=O)CCc2c(C)nn(-c3ccc4nncn4n3)c2C)cc1

assay / entry	31	32	33	34	35	36
HCMV UL50-53 inh	-128	-3	nt	nt	nt	nt
GIV-Gai inh	101	102	81*	66*	99	103
GIV-Gai FP conf	nt	nt	23*	27*	nt	nt
GIV Gai AS conf	nt	nt	11675*	10807*	nt	nt

37. Cc1nn(-c2ccc3nncn3n2)c(C)c1CCC(=O)Nc1ccc(F)c(Cl)c1
38. O=C(O)c1ccc(N2CCN(CC(=O)N3CCCC3)CC2)c(NC(=O)c2ccccc2Cl)c1
39. Cn1c(-c2ccccc2)c(/C=C2/C(=O)Oc3ccccc3C2=O)c2ccccc21
40. Cn1c(-c2ccccc2)c(/C=N/NC(=O)c2cccs2)c2ccccc21
41. c1ccc(-c2nc3ccccc3nc2-c2ccc(-c3nc4ccccc4nc3-c3ccccc3)cc2)cc1
42. COC(=O)c1cc(C(=O)Nc2ccc(Cl)cc2)c(=O)[nH]c1C

assay / entry	37	38	39	40	41	42
HCMV UL50-53 inh	nt	-22	nt	-25	nt	-13
GIV-Gai inh	89	96	44*	nt	115	106
GIV-Gai FP conf	78	nt	66	nt	nt	81
GIV Gai AS conf	27312	nt	25749	nt	nt	29055

43. COC(=O)c1cc(C(=O)Nc2ccc(C)cc2)c(=O)[nH]c1C
44. CC(=O)Nc1ccc(N2CCN(C(c3ccccc3)c3ccc(Cl)cc3)CC2)c(C(=O)O)c1 (configuration not stated)
45. COc1ccccc1C(C1C(=O)N(c2ccccc2)N=C1C)C1C(=O)N(c2ccccc2)N=C1C (configuration not stated)
46. COc1ccc(C(C2C(=O)N(c3ccccc3)N=C2C)C2C(=O)N(c3ccccc3)N=C2C)cc1OC (configuration not stated)
47. O=C(CCN1C(=O)/C(=C/c2ccc3c(c2)OCO3)SC1=S)Nc1nc(-c2ccccc2)cs1
48. O=C(CCN1C(=O)/C(=C/c2ccc3c(c2)OCO3)SC1=S)Nc1nc2ccccc2s1

assay / entry	43	44	45	46	47	48
HCMV UL50-53 inh	4	nt	nt	nt	-37	-20
GIV-Gai inh	105	111	114	77*	107	72*
GIV-Gai FP conf	nt	nt	nt	62	nt	88
GIV Gai AS conf	nt	nt	nt	15958*	nt	35546

3 compounds out of the list, sorted by length of the SMILES, lowest first:
48. O=C(CCN1C(=O)/C(=C/c2ccc3c(c2)OCO3)SC1=S)Nc1nc2ccccc2s1
44. CC(=O)Nc1ccc(N2CCN(C(c3ccccc3)c3ccc(Cl)cc3)CC2)c(C(=O)O)c1 (configuration not stated)
45. COc1ccccc1C(C1C(=O)N(c2ccccc2)N=C1C)C1C(=O)N(c2ccccc2)N=C1C (configuration not stated)

assay / entry	48	44	45
HCMV UL50-53 inh	-20	nt	nt
GIV-Gai inh	72*	111	114
GIV-Gai FP conf	88	nt	nt
GIV Gai AS conf	35546	nt	nt

More results
49. Cc1ccn2c(=O)cc(CNCC3(N4CCCCC4)CCCCC3)nc2c1
50. CCOc1ccc(NC(=O)C2CCN(c3c(N4CCCC4)c(=O)c3=O)CC2)cc1
51. COc1ccc(C)cc1NC(=O)Nc1cccc(OCc2cc(=O)n3ccc(C)cc3n2)c1
52. CCOC(=O)c1ccc(NC(=O)Nc2cccc(OCc3cc(=O)n4ccc(C)cc4n3)c2)cc1
53. CCOC(=O)C1=C(C)N=c2s/c(=C3\C(=O)N(CC)c4ccccc43)c(=O)n2C1/C=C/c1ccccc1 (configuration not stated)
54. Cc1cc(/C=C2\SC(=Nc3ccccc3)NC2=O)c(C)n1-c1ccccc1

assay / entry	49	50	51	52	53	54
HCMV UL50-53 inh	-18	nt	nt	nt	-7	-25
GIV-Gai inh	nt	99	93	85*	103	90
GIV-Gai FP conf	nt	nt	nt	78	nt	71
GIV Gai AS conf	nt	nt	nt	34616	nt	42209

55. CCc1ccc(N=C2NC(=O)/C(=C/c3cc(C)n(CC)c3C)S2)cc1
56. Cc1ccc2c(c1)-c1c(c(C(=O)N3CCN(c4cc(C)ccc4C)CC3)nn1C)CS2
57. Cn1nc(C(=O)N2CCN(c3ccc(Cl)cc3)CC2)c2c1-c1ccccc1SC2
58. O=C(NC1CCCC1)C1CCCN(C(=O)c2cc(-c3cccnc3)n[nH]2)C1 (configuration not stated)

assay / entry	55	56	57	58
HCMV UL50-53 inh	-15	nt	-16	-15
GIV-Gai inh	119	42*	100	100
GIV-Gai FP conf	nt	36*	nt	nt
GIV Gai AS conf	nt	26353	nt	nt
